According to US20150268247A1, “Assay for Screening of Anti-Viral Compounds That Inhibit Specific Interaction Interfaces Between Cullin5 and an ElonginB/ElonginC/ CBF-beta/HIV-1 Vif Complex” (UNIVERSITY OF ROCHESTER, priority 2012, published 2015):

Key:
[1] = molecular target: T1, SOCS2SOCS-box/EloB/C ternary complex (human SOCS2 SOCS-box residues 158-198 / ElonginB 1-118 / ElonginC 17-112) (human), O14508; assay: fluorescence anisotropy, 5-FAM labelled peptide titrated with B/C/SOCS2 up to about 23 µM; anisotropy rises only from about 0.033 to about 0.041 [cont.) upper right panel]
[2] = molecular target: T1, SOCS2SOCS-box/EloB/C ternary complex …; assay: fluorescence anisotropy, SOCS2/B/C [(-) control] titrated into 25 nM 5-FAM peptide; Sd ± 1.8

B1: Cul5(43-54) peptide (peptide)
peptide: LFSDVHAVCLWD
modifications: not checked
- Kd [1]: 15.6 µM

B2: Cul5(43-65) peptide (peptide)
peptide: LFSDVHAVCLWDDKGPAKIHQAL
modifications: not checked
- Kd [2]: 7.3 µM
